The chains behind the UniProt entries cited, without tags or fusion partners. Residues count along the entry.
UniProt Q9HBH9, 84-388: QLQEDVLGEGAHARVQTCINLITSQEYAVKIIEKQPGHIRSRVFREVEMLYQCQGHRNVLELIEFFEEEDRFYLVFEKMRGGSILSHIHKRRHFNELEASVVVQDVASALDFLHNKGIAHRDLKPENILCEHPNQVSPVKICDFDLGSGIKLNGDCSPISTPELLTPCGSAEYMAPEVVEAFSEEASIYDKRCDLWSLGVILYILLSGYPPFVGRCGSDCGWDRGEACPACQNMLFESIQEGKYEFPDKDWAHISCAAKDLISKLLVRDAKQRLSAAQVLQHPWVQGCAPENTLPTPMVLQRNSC

In US9908886B2 (Agency for Science, Technology and Research, priority 2012, dated 2018):

Experiments:
MNK1 = MNK1 (Homo sapiens, UniProt Q9BUB5); experiment: In vitro MNK kinase assay (Caliper LabChip mobility shift); assay type: biochemical; conditions: enzymatic, 1.2 mM ATP
MNK2 = MNK2 (Homo sapiens (Human), UniProt Q9HBH9); experiment: as above; assay type: biochemical; conditions: enzymatic, 250 μM ATP

| IC50 (MNK2) [nM] | SMILES | IC50 (MNK1) [nM] |
| --- | --- | --- |
| – | CN1CCN(C(=O)c2ccc(-c3ccc4ncc(-c5ccc(O)cc5)n4c3)cc2)CC1 [Example 175, (4-(3-(4-hydroxyphenyl)imidazo[1,2-a]pyridin-6-yl)phenyl)(4-methylpiperazin-1-yl)methanone] | < 1000 |
| < 1000 | CN1CCN(C(=O)c2ccc(-c3cn4c(-c5ccc(C#N)cc5)cnc4cn3)cc2)CC1 [Example 6, 4-(6-(4-(4-methylpinerazine-1-carbonyl)phenyl)imidazo[1,2-a]pyrazin-3-yl)benzonitrile] | < 1000 |
